# Earlier results, collected in paper PMC6295868, “Hybrid Inhibitors of Malarial Dihydrofolate Reductase with Dual Binding Modes That Can Forestall Resistance” (ACS Medicinal Chemistry Letters, 2018).
# System: P. falciparum TM4/8.2 (NCSI)
# Conditions: ± SD; cited from earlier work
smiles,measurement,value
"CCc1nc(N)nc(N)c1-c1ccc(Cl)cc1 [Pyr, pyrimethamine]",IC50,80 ± 10 nM
